Earlier results as cited in patent publication EP1657250A1, “HLA-A *01-binding T-cell epitope of WT1” (Charité - Universitätsmedizin Berlin, priority 2004, dated 2006).

By UniProt entry, the sequences of proteins in these tests, tags left out. Where a name states a change or a piece, a line headed by the entry shows the natural chain unless it says otherwise.
UniProt P19544: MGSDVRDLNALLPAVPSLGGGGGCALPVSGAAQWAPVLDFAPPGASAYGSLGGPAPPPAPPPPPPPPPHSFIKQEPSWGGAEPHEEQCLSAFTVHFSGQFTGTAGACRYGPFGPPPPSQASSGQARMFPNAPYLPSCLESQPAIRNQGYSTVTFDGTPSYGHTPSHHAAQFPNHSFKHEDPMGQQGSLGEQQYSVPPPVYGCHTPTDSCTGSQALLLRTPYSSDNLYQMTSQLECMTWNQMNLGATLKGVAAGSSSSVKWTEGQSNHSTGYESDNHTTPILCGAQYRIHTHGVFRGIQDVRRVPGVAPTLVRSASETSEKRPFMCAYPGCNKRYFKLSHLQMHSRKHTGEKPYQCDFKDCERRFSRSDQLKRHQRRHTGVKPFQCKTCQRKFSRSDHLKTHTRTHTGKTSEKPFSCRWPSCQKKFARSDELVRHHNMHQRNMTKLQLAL

Tested on: relapsed acute myeloid leukaemia (AML)
Settings: cited from earlier work

## WT1.126-134: known HLA-A*0201-binding WT1 epitope (RMFPNAPYL; UniProt P19544 126-134, looked up, fragment)
A patient with relapsed AML
  clinical outcome associated with T-cell response: complete remission
Vaccination of patients
  T-cell responses induced by vaccination: high frequency T-cell responses
